Source: the NIST ThermoML archive (doi:10.1016/j.jct.2005.01.002)
± gives the expanded uncertainty stated by the source.

Conditions: 101.33 kPa, Liquid

- mass density (298.15 K): 764.08 ± 0.62 kg/m3
- mass density (313.15 K): 750.92 ± 0.63 kg/m3
- mass density (328.15 K): 737.68 ± 0.65 kg/m3
- mass density (343.15 K): 724.25 ± 0.66 kg/m3
- mass density (358.15 K): 710.54 ± 0.68 kg/m3
Structure (SMILES): CCCCOCCCC [dibutyl ether]
